The experiment concerns Amyloid-β peptide release (AβTotal), HEK cells overexpressing APP (HEK-APP). In words: Amyloid-β peptide release (AβTotal) assay, AlphaLISA on supernatant of HEK-APP cells. In kind it is cell-based. As to conditions: ratio Abtot vs Ab42, HEK-APP cells, 24 h. As for the experimental part:
Amyloid-β Peptide Release (Aβ42 & AβTotal) Assay to Determine IC50 Values.
Compounds are dissolved in and diluted in 100% DMSO and incubated with HEK-APP cells for 24 h at 37° C. in 5% CO2. The supernatant from HEK-APP cells are mixed with antibodies: for Aβ42 detection: AlphaLISA Amyloid-β 1-42 Kit (Perkin Elmer AL203L) Anti-Amyloid β1-42-specific antibody acceptor beads, biotinylated anti-Amyloid-“β1-42” antibody and streptavidin (SA) donor beads diluted in AlphaLISA buffer (to the instructions of the supplier). For Aβ total detection: Custom Anti-Amyloid-βtotal acceptor beads (6E10 acceptor beads), biotinylated anti-Amyloid “β1-42” antibody (Perkin Elmer AL203L) and streptavidin (SA) donor beads diluted in AlphaLISA buffer (to the instructions of the supplier). After addition of supernatant to the antibody mix, the assay is incubated for 4.5 h. Amyloid-β peptide release (Aβ42 & AβTotal) is measured with a Pherastar FS (BMG) multimode reader using the alphascreen module.
On the technique in general: Alpha assays give light when donor and acceptor beads are brought close together.

Consider `Cc1ncc2sc(C(=O)N3CCCC3c3ccc(Cl)cc3)nn12` (stereo not shown) [Example 118, [2-(4-Chloro-phenyl)-pyrrolidin-1-yl]-(5-methyl-imidazo[5,1-b][1,3,4]thiadiazol-2-yl)-methanone], for which the Abtot/Ab42 selectivity ranges entry is listed as “d (d: 10 fold > selectivity)”.

(Values after patent US9932354B2, “Imidazo-oxadiazole and imidazo-thiadiazole derivatives” (Ares Trading S.A., priority 2012, dated 2018).)
